Measured values as given in US10371707B1, “System and methods for bilirubin analysis” (Neolight LLC, priority 2017, dated 2019).

Assay: Cyclic voltammetry, direct electro-oxidation on screen-printed carbon electrodes
Assay type: physicochemical
Procedure: All electrochemical experiments were performed on screen-printed carbon electrodes with an Ag/AgCl reference electrode in a 3-electrode mode of operation. Cyclic Voltammetry parameters were controlled via a computational program; scan rate: 0.1 V/s, start potential: −0.5V, switch potential: 0.9V, end potential: −0.5V.
Bilirubin (mixed isomers), Fatty-acid free Human serum albumin, Bilirubin conjugated ditaurate disodium salt, Sodium hydroxide, Tris(hydroxymethyl)aminomethane, Hydrochloric acid, Tetrabromophenol Blue were purchased from Sigma Aldrich, UK. Deionized water (resistivity 18.2MΩ cm) was used in the preparation of solutions. Bilirubin was dissolved in 0.05M sodium hydroxide to prepare 1 mM stock and gently vortexed till homogenously mixed. This stock solution was then diluted using 0.05 M Tris-HCl (pH 8.5) to the desired working concentration. Human serum albumin was prepared in 0.05M Tris-HCl (pH 8.5) and vortexed till homogenously mixed. Bromophenol blue was prepared in 0.05M Tris-HCl (pH 8.5). Conjugated bilirubin was dissolved in 0.05M Tris-HCl (pH 8.5) and mixed till homogenous. All tubes containing bilirubin were protected from light.
Regarding the detection of unbound unconjugated bilirubin, it was diluted to a physiologically relevant concentration (100 μM) and analyzed by cyclic voltammetry. […] Also, the peak at 0.15V was noticeably absent in second and third scans. […]

albumin: Fatty-acid free Human serum albumin, purchased from Sigma Aldrich
anodic peak Epa (first/characteristic anodic peak, carbon electrodes, Ag/AgCl reference, scan rate 0.1 V/s, 0.05M Tris-HCl pH 8.5): 0.55 V | broad peak Epa across all concentrations (wider range 0.175 g/dL to 30 g/dL): 0.6 V
